Measurements reported in PubChem BioAssay AID504845 (National Center for Advancing Translational Sciences (NCATS), 2011).
Only a part is listed here, and it is no random draw. Inconclusive results are not listed. The source made the active and inactive calls. Calls follow the shape of the dose curve; as a rule, active = well fitted inhibition curve with a large enough effect; inconclusive = small, poorly fitted or top-dose-only effect; inactive = no such curve, though single readings can be large or run the other way.
% is scaled to controls: 0 for no effect and ±100 for the full control effect.
Also: nearly all actives have a fitted effect of over 75% in size.

By UniProt entry, the sequences of proteins in these tests, tags left out.
UniProt P49798, whole entry: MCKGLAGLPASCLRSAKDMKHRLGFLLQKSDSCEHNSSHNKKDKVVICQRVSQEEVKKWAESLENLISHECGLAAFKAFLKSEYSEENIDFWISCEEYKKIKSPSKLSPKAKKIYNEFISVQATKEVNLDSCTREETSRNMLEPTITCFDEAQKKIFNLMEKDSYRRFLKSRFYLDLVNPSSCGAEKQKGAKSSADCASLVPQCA

Each compound was assayed against Regulator of G-protein signaling 4 (Homo sapiens) (UniProt P49798) (assay: Inhibitors of Regulator of G Protein Signaling (RGS) 4: qHTS). Conditions: Transcreener GDP fluorescence polarization, RGS4-accelerated GTP hydrolysis; at 114 µM (top of the series).
Description: G-protein-coupled receptors (GPCRs) are well-established targets for drug discovery and development. Members of the "regulator of G-protein signaling" (RGS)-protein superfamily have recently emerged as critical modulators of specific GPCR signaling pathways. […] Combining specific RGS domain inhibitors with existing GPCR agonists should potentiate cellular responses and could also increase the specificity of action of existing therapeutics. Small molecule modulators of RGS domain activity should also have clinical utility in inhibiting or potentiating the actions of endogenous GPCR agonists. In particular, the diversity of RGS proteins with highly localized and dynamically regulated distributions in the human brain makes this family of proteins attractive targets for pharmacotherapy of central nervous system (CNS) disorders such as Parkinson's disease, schizophrenia, and anxiety. […]
Two microliters of 500nM (2x working concentration) is dispensed into black medium-binding solid-bottom Kalypsys plates. […] An initial fluorescent polarization read (620 nm/688 nm) is performed on the Envision before the plate is incubated for 90 minutes at 30 deg C at a relative humidity of 80%. The plate is once more centrifuged at 1000 RPM for 15 seconds and another Envision fluorescent polarization (620 nm/688 nm) read is carried out.
For `CP(=O)(Nc1cccc(Br)c1)Oc1ccccc1` (stereo unspecified), the activity change, negative = inhibition was inactive: -3.9%.
